From ChEMBL document CHEMBL2057126, “Discovery of new inhibitors of Cdc25B dual specificity phosphatases by structure-based virtual screening” (J Med Chem, 2012)

Legend:
[1] = target: M-phase inducer phosphatase 2 (Homo sapiens) (UniProt P30305); assay: Inhibition of recombinant phosphatase activity of Cdc25B catalytic domain expressed in Escherichia coli BL21(DE3) using OMFP as substrate in presence of recombinant superoxide dismutase
[2] = target: T1, M-phase inducer phosphatase 2 (Homo sapiens, UniProt P30305); assay: Inhibition of recombinant phosphatase activity of Cdc25B catalytic domain expressed in Escherichia coli BL21(DE3) using OMFP as substrate by spectrofluorimetric analysis
T1 sequence (P30305 whole entry): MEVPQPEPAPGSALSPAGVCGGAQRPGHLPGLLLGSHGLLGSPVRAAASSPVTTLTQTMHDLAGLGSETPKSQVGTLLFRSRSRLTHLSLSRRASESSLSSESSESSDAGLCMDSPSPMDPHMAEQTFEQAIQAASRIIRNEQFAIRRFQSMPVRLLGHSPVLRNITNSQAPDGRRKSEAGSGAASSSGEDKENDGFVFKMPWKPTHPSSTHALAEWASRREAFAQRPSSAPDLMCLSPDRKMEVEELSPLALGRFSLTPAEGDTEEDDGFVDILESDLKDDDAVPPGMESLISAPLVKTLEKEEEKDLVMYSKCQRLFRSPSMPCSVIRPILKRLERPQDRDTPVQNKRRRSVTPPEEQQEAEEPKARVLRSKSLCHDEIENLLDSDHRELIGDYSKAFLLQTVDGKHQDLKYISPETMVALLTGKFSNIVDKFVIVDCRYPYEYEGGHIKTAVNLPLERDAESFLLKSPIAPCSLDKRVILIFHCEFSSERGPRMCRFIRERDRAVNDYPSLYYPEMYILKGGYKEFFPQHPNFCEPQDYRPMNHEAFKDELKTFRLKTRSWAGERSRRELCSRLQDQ
Method in brief: (§1)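 Purified Cdc25B catalytic domain, 10 nM, assayed by rate of OMFP hydrolysis. For IC50, substrate fixed at 25 μM and inhibitor concentration varied; activity expressed as percent of no-inhibitor control. For Ki and inhibition type, Lineweaver–Burk plots built from 1–25 μM OMFP without or with fixed inhibitor concentrations. Averages ± SD of three determinations.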

[3] = target: T1, M-phase inducer phosphatase 2; assay: Competitive inhibition of recombinant phosphatase activity of Cdc25B catalytic domain expressed in Escherichia coli BL21(DE3) using OMFP as substrate by Lineweaver-Burk plot analysis
Method in brief: as §1

[4] = target: T2, M-phase inducer phosphatase 1 (Homo sapiens, UniProt P30304); assay: Inhibition of recombinant phosphatase activity of Cdc25A catalytic domain expressed in Escherichia coli BL21(DE3) using OMFP as substrate by spectrofluorimetric analysis
T2 sequence (P30304 whole entry): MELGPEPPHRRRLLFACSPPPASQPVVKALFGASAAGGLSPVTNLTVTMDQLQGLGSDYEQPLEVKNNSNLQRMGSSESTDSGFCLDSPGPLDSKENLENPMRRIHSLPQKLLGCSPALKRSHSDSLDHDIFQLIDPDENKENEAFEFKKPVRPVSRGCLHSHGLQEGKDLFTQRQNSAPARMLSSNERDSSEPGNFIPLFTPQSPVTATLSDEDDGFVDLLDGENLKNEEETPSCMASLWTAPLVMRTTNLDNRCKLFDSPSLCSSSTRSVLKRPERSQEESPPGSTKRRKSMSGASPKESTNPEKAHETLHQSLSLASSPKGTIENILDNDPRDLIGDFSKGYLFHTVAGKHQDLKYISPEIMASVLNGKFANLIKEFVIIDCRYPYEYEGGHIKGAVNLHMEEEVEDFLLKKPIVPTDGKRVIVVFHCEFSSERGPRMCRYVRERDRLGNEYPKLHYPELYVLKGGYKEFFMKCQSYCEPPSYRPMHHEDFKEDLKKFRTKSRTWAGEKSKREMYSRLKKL
Method in brief: (§2)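 Purified recombinant Cdc25A catalytic domain; phosphatase activity measured as OMFP hydrolysis versus inhibitor concentration to derive IC50, with Ki calculated from kinetic measurements. Results are averages ± SD of three determinations.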

[5] = target: T2, M-phase inducer phosphatase 1; assay: Inhibition of recombinant phosphatase activity of Cdc25A catalytic domain expressed in Escherichia coli BL21(DE3) using OMFP as substrate by Lineweaver-Burk plot analysis
Method in brief: as §2

O=C(O)CCc1c2ccc(=O)c(O)c-2oc2c(O)c(O)ccc12
IC50 [1]: 330 nM | IC50 [2]: 100 nM | Ki [3]: 80 nM | IC50 [4]: 240 nM | Ki [5]: 70 nM
